Assay results taken from paper PMC9088906 (ACS Omega, 2022).

By UniProt entry, the sequences of proteins in these tests, tags left out. Residues count along the entry.
UniProt P53779, 40-402: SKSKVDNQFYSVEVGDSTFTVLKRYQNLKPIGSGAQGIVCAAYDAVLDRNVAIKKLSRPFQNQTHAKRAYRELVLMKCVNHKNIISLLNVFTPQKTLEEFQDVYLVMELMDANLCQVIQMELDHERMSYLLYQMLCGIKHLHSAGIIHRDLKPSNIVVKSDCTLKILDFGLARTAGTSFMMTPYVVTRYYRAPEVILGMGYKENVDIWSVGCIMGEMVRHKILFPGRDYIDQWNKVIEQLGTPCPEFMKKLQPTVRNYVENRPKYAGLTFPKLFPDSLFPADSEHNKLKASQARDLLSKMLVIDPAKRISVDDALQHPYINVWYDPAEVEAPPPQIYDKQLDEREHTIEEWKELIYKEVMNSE

Molecular target: human JNK3 (Homo sapiens, UniProt P53779)
Test: Fluorescence thermal shift
Format: binding

SP600125 was tested. Which “maximum Tm shift” value (500 μM ligand, protein concentration 2 μM) did it give?
Its value is ~12.7 °C.

What about the ΔTm50 (HTS–FTS, compound concentration 200 μM, JNK3 2 μM, mean n = 3) of the same substance?
Its ΔTm50 is 7.86 °C.
